substance,measurement,setting,value
human u-PA,"uPA kinetics, fold increase as compared to substrate 2001",CM1-CM2 substrate 2003,in the range of about 3- to 4-fold
same,"uPA kinetics, fold increase as compared to substrate 1004/LP′/0001",CM1-CM2 substrate 2005,in the range of about 3- to 4-fold
